The values that follow come from ChEMBL document CHEMBL3286229 (J Med Chem, 2014).

Chains of the proteins cited; added tags and fusions are not shown. Lines headed by an entry give the natural chain unless they say otherwise; changes in a name come on top.
UniProt P14867: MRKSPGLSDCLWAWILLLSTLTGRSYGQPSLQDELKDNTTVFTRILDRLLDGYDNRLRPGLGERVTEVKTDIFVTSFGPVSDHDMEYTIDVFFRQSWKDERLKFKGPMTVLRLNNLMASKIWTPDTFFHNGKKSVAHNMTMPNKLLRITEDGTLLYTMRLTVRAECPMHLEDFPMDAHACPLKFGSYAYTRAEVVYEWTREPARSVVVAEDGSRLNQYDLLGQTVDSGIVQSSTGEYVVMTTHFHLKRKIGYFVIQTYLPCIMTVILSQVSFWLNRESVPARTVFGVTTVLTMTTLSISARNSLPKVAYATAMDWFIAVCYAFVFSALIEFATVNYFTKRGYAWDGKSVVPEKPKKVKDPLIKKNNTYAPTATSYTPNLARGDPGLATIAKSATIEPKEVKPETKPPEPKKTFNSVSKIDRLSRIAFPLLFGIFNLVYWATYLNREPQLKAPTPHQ
UniProt P47870: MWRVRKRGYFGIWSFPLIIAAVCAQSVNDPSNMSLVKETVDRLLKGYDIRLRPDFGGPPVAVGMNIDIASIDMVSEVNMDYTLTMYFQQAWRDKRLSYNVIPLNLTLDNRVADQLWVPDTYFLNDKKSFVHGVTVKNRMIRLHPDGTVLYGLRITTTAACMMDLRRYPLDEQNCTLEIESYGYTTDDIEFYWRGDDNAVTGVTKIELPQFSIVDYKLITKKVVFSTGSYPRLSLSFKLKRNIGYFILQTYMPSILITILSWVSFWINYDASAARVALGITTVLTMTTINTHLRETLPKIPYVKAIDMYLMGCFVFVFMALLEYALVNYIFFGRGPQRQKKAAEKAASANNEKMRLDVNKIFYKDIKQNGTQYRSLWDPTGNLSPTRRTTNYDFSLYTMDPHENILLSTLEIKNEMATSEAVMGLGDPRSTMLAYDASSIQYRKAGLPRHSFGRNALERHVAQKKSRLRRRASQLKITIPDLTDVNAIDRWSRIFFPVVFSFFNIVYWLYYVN
UniProt P18507: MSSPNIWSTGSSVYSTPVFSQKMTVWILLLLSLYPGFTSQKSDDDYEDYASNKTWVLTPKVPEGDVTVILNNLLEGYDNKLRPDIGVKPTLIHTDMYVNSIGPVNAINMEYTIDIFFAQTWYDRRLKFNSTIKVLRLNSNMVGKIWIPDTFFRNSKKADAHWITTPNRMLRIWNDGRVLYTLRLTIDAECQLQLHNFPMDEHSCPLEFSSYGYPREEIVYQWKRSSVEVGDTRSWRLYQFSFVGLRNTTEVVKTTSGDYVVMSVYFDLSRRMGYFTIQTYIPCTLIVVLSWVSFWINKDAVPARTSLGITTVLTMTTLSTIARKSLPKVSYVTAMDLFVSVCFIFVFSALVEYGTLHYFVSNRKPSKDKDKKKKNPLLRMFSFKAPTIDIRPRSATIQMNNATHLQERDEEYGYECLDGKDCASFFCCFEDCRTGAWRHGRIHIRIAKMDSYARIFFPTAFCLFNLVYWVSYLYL

The target of this assay is GABA-A receptor; alpha-1/beta-2/gamma-2 (Homo sapiens) (UniProt P14867+P47870+P18507). Nature of the assay: Modulation of GABAA alpha1beta2gamma2S receptor (unknown origin) expressed in Xenopus laevis oocytes assessed as modulation of GABA-induced chloride ion current at holding potential -70 mV at 100 uM by two-microelectrode voltage clamp assay relative to GABA-treated control. The assay is classed as cell-based.

Regarding `CCCN(CCC)C(=O)c1cccc2cc3c(cc12)OCO3`, the Activity was found to be 334%.
On to `CCCN(CCC)C(=O)/C=C/C=C/c1ccc2c(c1)OCO2`, for which the Activity is 1090%.
